# The supplement of paper PMC10933113
# Where a name gives a salt, the structure may show the parent alone. ± gives the uncertainty stated by the source. Only a part is listed here, and it is no random draw.
# System: THP-1
# Experiment: CD54 surface expression induction over DMSO control (% over DMSO); higher = stronger dendritic cell activation
# Settings: exposure time: 24 h
# Method: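 hCLAT-like CD54 and CD86 surface expression on THP1 cells after 24 h exposure at a single concentration (highest non-cytotoxic concentration, or 100-200 µM if not cytotoxic). Flow cytometry (iQue) was run on 5,000 live cells.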
row,Structure (SMILES),CD54 surface expression induction
1,C=CC(=O)OCCOc1ccccc1 [2-Phenoxyethyl acrylate] (100 µM),-5.56 ± 3.6
2,NNc1nncc2ccccc12 [Hydralazine hydrochloride] (10 µM),-0.66 ± 4.2
3,CN1CCCN=C1/C=C/c1cccs1 [Pyrantel tartrate] (100 µM),-5.13 ± 0.88
4,Oc1ccc(O)cc1 [Hydroquinone] (10 µM),11.7 ± 2.7
5,Cn1c(=O)c2c(ncn2C)n(C)c1=O [Caffeine] (100 µM),-4.37 ± 1.2
6,CCOC(=O)N1CCC(=C2c3ccc(Cl)cc3CCc3cccnc32)CC1 [Loratadine] (100 µM),22.6 ± 23
